Source: PubChem BioAssay AID504894 (National Center for Advancing Translational Sciences (NCATS), 2011)
This is a selection; strong and weak results do not stand in their true shares. Activity calls are given as the source filed them. The call rests on the fitted dose curve; in most records, active means well fitted activation curve with a large enough effect; inconclusive means small, poorly fitted or top-dose-only effect, or another doubt; inactive means no such curve, though single readings can be large or run the other way.

Assay: Activators of T cell receptors: qHTS campaign; further: % of control where 0% means no effect
Details: primary human leukocytes, anti-CD3, IL-2 HTRF, 48 h; at 9.22 µM (top of the series) unless noted
Excerpt: Normally activation of naive T cells requires two signals. 1. A signal through the T cell receptor (TCR) which provides antigen specificity to the response. 2. Signals through co-stimulatory molecules, which are necessary for proliferation, survival and cytokine production. In the absence of co-stimulatory signals T cells are not effectively activated, and may even be rendered anergic or unresponsive to subsequent signaling. This lack of costimulation has been shown in multiple model systems to be a major factor in the limited strength and effectiveness of anti-tumor T cell responses. The goal of this project is to identify small molecule compounds that will stimulate T cell activation in the presence of TCR signaling but in the absence of co-stimulatory signals, thereby allowing activation of naive T cells in the absence of co-stimulation. Identification of such compounds would have clear experimental and clinical applications in instances where desirable antigen-specific immune responses are not generated due to a lack of co-stimulation, for example in the generation of anti-tumor responses. In collaboration between the National Cancer Institute and NIH Chemical Genomics Center, a high-throughput amenable screen was developed to discover small molecules that co-stimulate and activate human T cell receptors. The screen will be carried out using a novel homogeneous time resolved fluorescence energy transfer (HTRF) assay to measure production of the cytokine IL-2 by activated T cells and will be tested against the NIH Molecular Libraries Small Molecule Repository (MLSMR). NIH Chemical Genomics Center [NCGC] NIH Molecular Libraries Probe Centers Network [MLPCN] MLPCN Grant: MH090820-01 Assay Submitter (PI): Richard Hodes, National Cancer Institute, NIH
Primary human leukocytes are incubated with a-CD3 beads and compounds for 48 hr. The amount of secreted IL-2 is then assayed with a HTRF IL-2 kit. The presence of IL-2 cytokine captures the detection reagents and brings the a-IL-2-K and a-IL-2-d2 into close proximity. Upon excitation with 320nm light, the europium cryptate is capable of transferring energy to acceptor molecules within close proximity, resulting in acceptor molecule emission at 665nm.
With `CCc1cc(O)c([N+](=O)[O-])c(C)c1[N+](=O)[O-]` the activation of IL-2 secretion was inactive: 2.91%. In the case of `CC(C)(C)C(=O)NC(Sc1ccccc1)C(Cl)(Cl)Cl` (configuration not stated), the activation of IL-2 secretion was inactive: 2.14%. With `O=P1(Nc2nc3ccc(Cl)cc3s2)COc2ccccc2O1` (configuration not stated) the activation of IL-2 secretion was inactive: 3.23%. With `CCOc1ccc(C2=NCC(CBr)S2)cc1` (configuration not stated) the activation of IL-2 secretion was inactive: -3.48%. With `CC(=O)Nc1ccc([As](=O)(O)O)c(O)c1` the activation of IL-2 secretion was inactive: 11.8%. For `CC(=O)Nc1ccc(Oc2c([N+](=O)[O-])cc([N+](=O)[O-])cc2[N+](=O)[O-])cc1`, the activation of IL-2 secretion was inactive: 4.99%. In the case of `N#C/C(=C\c1ccc(N(CCBr)CCBr)cc1)C(N)=O`, the activation of IL-2 secretion was inactive: -7.33%. In the case of `CC(=O)c1ccc(N2CC2c2ccncc2)cc1` (configuration not stated), the activation of IL-2 secretion was inactive: -8.62%. With `COC(=O)C1(C)COP(=O)(NCc2ccccc2)OC1` (configuration not stated) the activation of IL-2 secretion was inactive: -2.92%. With `Cc1ccccc1CN(C)C(=O)COC(=O)C(O)(c1ccccc1)c1ccccc1` the activation of IL-2 secretion was inactive: -1.46%. In the case of `C[C@@H]1C=CCP(=O)(Oc2ccccc2)O1` (some centres not stated), the activation of IL-2 secretion was inactive: 6.32%. With `C[C@H]1OP(=O)(Oc2ccccc2)C[C@@H]2O[C@@H]21` (some centres not stated) the activation of IL-2 secretion was inactive: -3.64%. For `O=P1(N(CCCl)CCCl)OCCC2CCCCN21` (configuration not stated), the activation of IL-2 secretion was inactive: 3%. In the case of `O=C(NC1CCS(=O)(=O)C1)NP(=S)(Oc1ccccc1)Oc1ccccc1` (configuration not stated), the activation of IL-2 secretion was inactive: -5.76%. In the case of `CCNC(=S)/N=C(\N)N[N+](=O)[O-]`, the activation of IL-2 secretion was inactive: -1.17%. With `c1ccc(-c2nn[nH]n2)c(-c2nn[nH]n2)c1` the activation of IL-2 secretion was inactive: 6.15%. With `Cc1ccc(NP(=O)(Oc2cccc(C)c2)Oc2cccc(C)c2)nc1` the activation of IL-2 secretion was inactive: -3.05%. With `Cc1ccccc1OP(=O)(Nc1ccccn1)Oc1ccccc1C` the activation of IL-2 secretion was inactive: -2.89%. With `CC(NC(=O)COC(=O)C(O)(c1ccccc1)c1ccccc1)c1ccccc1` (configuration not stated) the activation of IL-2 secretion was inactive: -3.43%. In the case of `CN(C)C(=O)Oc1noc2ccccc12`, the activation of IL-2 secretion was inactive: 1.27%. In the case of `O=c1c2cc([N+](=O)[O-])ccc2[nH]c2c([N+](=O)[O-])cc([N+](=O)[O-])cc12`, the activation of IL-2 secretion was inactive: 3.35%. For `COC(=O)c1cc2c(s1)N=C(c1ccccc1)N(C)P2(=O)N1CCOCC1` (configuration not stated), the activation of IL-2 secretion was inactive: 2.34%. For `Cc1ccc(OP(=O)(Nc2ccccn2)Oc2ccc(C)cc2)cc1`, the activation of IL-2 secretion was inactive: 3.16%. For `CC(=O)NC(SC(=S)N(CC(C)C)CC(C)C)C(Cl)(Cl)Cl` (configuration not stated), the activation of IL-2 secretion was inactive: 0.779%. For `O=C(OC1CN2CCC1CC2)c1ccccc1` (configuration not stated), the activation of IL-2 secretion was inactive: 2.79%. For `CCC(=O)N1C2C3N(C(=O)CC)C1C1N(C(=O)CC)C(C(N1C(=O)CC)N3C(=O)CC)N2C(=O)CC`, the activation of IL-2 secretion was inactive: -9.08%. With `O=P(Nc1nc2ccccc2s1)(c1ccccc1)c1ccccc1` the activation of IL-2 secretion was inactive: 5.45%.
